From patent publication US10730889B2, “Amido spirocyclic amide and sulfonamide derivatives” (Forma TM, LLC, priority 2012, dated 2020)
pIC50: −log10 of the molar value.

Amino acid sequences for entries named in this document (tags omitted). A change or cut given only in a name is not applied to a line headed by its entry.
UniProt P43490: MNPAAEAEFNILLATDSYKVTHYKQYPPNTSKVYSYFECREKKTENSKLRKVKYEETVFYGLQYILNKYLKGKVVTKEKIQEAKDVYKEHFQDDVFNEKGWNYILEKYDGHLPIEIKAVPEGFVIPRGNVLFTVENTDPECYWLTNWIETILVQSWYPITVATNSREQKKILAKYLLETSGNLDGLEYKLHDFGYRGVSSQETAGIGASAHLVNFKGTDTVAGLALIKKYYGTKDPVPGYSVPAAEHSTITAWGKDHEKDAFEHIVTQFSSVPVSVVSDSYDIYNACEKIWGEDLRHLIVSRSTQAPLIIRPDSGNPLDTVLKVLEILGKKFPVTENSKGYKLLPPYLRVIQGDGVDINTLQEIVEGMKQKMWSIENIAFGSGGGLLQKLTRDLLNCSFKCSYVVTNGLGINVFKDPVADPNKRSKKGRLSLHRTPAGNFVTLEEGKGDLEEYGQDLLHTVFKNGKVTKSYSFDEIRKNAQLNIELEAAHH

What follows are molecules tested against NAMPT (Homo sapiens (Human), UniProt P43490) (assay: Biochemical inhibition assay (NAMPT enzymatic reaction, NMN quantified by mass spectrometry)).

Row | Structure (SMILES) | pIC50
1 | Cc1cc(C)n(CC(=O)N2CCC3(CC2)CC3CNC(=O)c2cc3ccncc3o2)n1 (stereo not shown) [Example 67, N-[[6-[2-(3,5-dimethylpyrazol-1-yl)acetyl]-6-azaspiro[2.5]octan-2-yl]methyl]furo[2,3-c]pyridine-2-carboxamidc] | 6.68
2 | CC(=O)N1CCCC1C(=O)N1CCC2(CC1)CC2CNC(=O)c1cc2ccncc2o1 (stereo not shown) [Example 68, N-[[6-(1-acetylpyrrolidine-2-carbonyl)-6-azaspiro[2.5]octan-2-yl]methyl]furo[2,3-c]pyridine-2-carboxamide] | 6.09
3 | CS(=O)(=O)c1ccccc1C(=O)N1CCC2(CC1)CC2CNC(=O)c1cc2ccncc2o1 (stereo not shown) [Example 69, N-[[6-(2-methylsulfonylbenzoyl)-6-azaspiro[2.5]octan-2-yl]methyl]furo[2,3-c]pyridine-2-carboxamide] | 6.41
4 | O=C(NCC1CC12CCN(C(=O)c1cccc(-n3cnnc3)c1)CC2)c1cc2ccncc2o1 (stereo not shown) [Example 70, N-[[6-[3-(1,2,4-triazol-4-yl)benzoyl]-6-azaspiro[2.5]octan-2-yl]methyl]furo[2,3-c]pyridine-2-carboxamide] | 7.17
5 | CC(=O)Nc1ccc(C(=O)N2CCC3(CC2)CC3CNC(=O)c2cc3ccncc3o2)cc1 (stereo not shown) [Example 72, N-[[6-(4-acetamidobenzoyl)-6-azaspiro[2.5]octan-2-yl]methyl]furo[2,3-c]pyridine-2-carboxamide] | 7.47
6 | CS(=O)(=O)N1CCCC(C(=O)N2CCC3(CC2)CC3CNC(=O)c2cc3ccncc3o2)C1 (stereo not shown) [Example 73, N-[[6-(1-methylsulfonylpiperidine-3-carbonyl)-6-azaspiro[2.5]octan-2-yl]methyl]furo[2,3-c]pyridine-2-carboxamide] | 7.24
7 | CS(=O)(=O)N1CCC(C(=O)N2CCC3(CC2)CC3CNC(=O)c2cc3ccncc3o2)CC1 (stereo not shown) [Example 74, N-[[6-(1-methylsulfonylpiperidine-4-carbonyl)-6-azaspiro[2.5]octan-2-yl]methyl]furo[2,3-c]pyridine-2-carboxamide] | 6.64
8 | CC(C(=O)N1CCC2(CC1)CC2CNC(=O)c1cc2ccncc2o1)N1CCOCC1 (stereo not shown) [Example 75, N-[[6-(2-morpholinopropanoyl)-6-azaspiro[2.5]octan-2-yl]methyl]furo[2,3-c]pyridine-2-carboxamide] | 6.96
9 | CS(=O)(=O)N1CCCC1C(=O)N1CCC2(CC1)CC2CNC(=O)c1cc2ccncc2o1 (stereo not shown) [Example 76, N-[[6-(1-methylsulfonylpyrrolidine-2-carbonyl)-6-azaspiro[2.5]octan-2-yl]methyl]furo[2,3-c]pyridine-2-carboxamide] | 6.67
10 | O=C(NCC1CC12CCN(C(=O)CC1NC(=O)c3ccccc31)CC2)c1cc2ccncc2o1 (stereo not shown) [Example 77, N-[[6-[2-(3-oxoisoindolin-1-yl)acetyl]-6-azaspiro[2.5]octan-2-yl]methyl]furo[2,3-c]pyridine-2-carboxamide] | 6.77
11 | NC(=O)N1CCC(C(=O)N2CCC3(CC2)CC3CNC(=O)c2cc3ccncc3o2)CC1 (stereo not shown) [Example 78, N-[[6-(1-carbamoylpiperidme-4-carbonyl)-6-azaspiro[2.5]octan-2-y]methyl]furo(2,3-c]pyridine-2-carboxamide] | 6.53

Other lines, results leading:

Row | pIC50 | Structure (SMILES)
12 | 6.12 | NC(=O)N1CCCC(C(=O)N2CCC3(CC2)CC3CNC(=O)c2cc3ccncc3o2)C1 (stereo not shown) [Example 79, N-[[6-(1-carbamoylpiperidine-3-carbonyl)-6-azaspiro[2.5]octan-2-yl]methyl]furo[2,3-c]pyridine-2-carboxamide]
13 | 6.61 | O=C(NCC1CC12CCN(C(=O)CC1CCS(=O)(=O)C1)CC2)c1cc2ccncc2o1 (stereo not shown) [Example 80, N-[[6-[2-(1,1-dioxothiolan-3-yl)acetyl]-6-azaspiro[2.5]octan-2-yl]methyl]furo[2,3-c]pyridine-2-carboxamide]
14 | 6.20 | O=C(NCC1CC12CCN(C(=O)Cn1ccc(=O)[nH]c1=O)CC2)c1cc2ccncc2o1 (stereo not shown) [Example 81, N-[[6-[2-(2,4-dioxopyrimidin-1-yl)acetyl]-6-azaspiro[2.5]octan-2-yl]methyl]furo[2,3-c]pyridine-2-carboxamide]
15 | 6.40 | CC(=O)N1CCC(C(=O)N2CCC3(CC2)CC3CNC(=O)c2cc3ccncc3o2)CC1 (stereo not shown) [Example 82, N-[[6-(1-acetylpiperidine-4-carbonyl)-6-azaspiro[2.5]octan-2-yl]methyl]furo[2,3-c]pyridine-2-carboxamide]
16 | 6.68 | O=C(NCC1CC12CCN(C(=O)c1ccc(Cn3cnnn3)cc1)CC2)c1cc2ccncc2o1 (stereo not shown) [Example 83, N-[[6-[4-(tetrazol-1-ylmethyl)benzoyl]-6-azaspiro[2.5]octan-2-yl]methyl]furo[2,3-c]pyridine-2-carboxamide]
17 | 7.12 | CS(=O)(=O)Nc1ccc(C(=O)N2CCC3(CC2)CC3CNC(=O)c2cc3ccncc3o2)cc1 (stereo not shown) [Example 84, N-[[6-[4-(methanesulfonamido)benzoyl]-6-azaspiro[2.5]octan-2-yl]methyl]furo[2,3-c]pyridine-2-carboxamide]
18 | 7.41 | O=C(NCC1CC12CCN(C(=O)c1ccc(N3CCS(=O)(=O)CC3)cc1)CC2)c1cc2ccncc2o1 (stereo not shown) [Example 85, N-[[6-[4-(1,1-dioxo-1,4-thiazinan-4-yl)benzoyl]-6-azaspiro[2.5]octan-2-yl)methyl]furo[2,3-c]pyridine-2-carboxamide]
19 | 7.52 | CN1CCN(Cc2ccc(C(=O)N3CCC4(CC3)CC4CNC(=O)c3cc4ccncc4o3)cc2)CC1 (stereo not shown) [Example 86, N-[[6-[4-[(4-methylpiperazin-1-yl)methyl]benzoyl]-6-azaspiro[2.5]octan-2-yl]methyl]furo[2,3-c]pyridine-2-carboxamide]
20 | 6.10 | CN1CCN(Cc2ccccc2C(=O)N2CCC3(CC2)CC3CNC(=O)c2cc3ccncc3o2)CC1 (stereo not shown) [Example 87, N-[[6-[2-[(4-methylpiperazin-1-yl)methyl]benzoyl]-6-azaspiro[2.5]octan-2-yl]methyl]furo[2,3-c]pyridine-2-carboxamide]
21 | 7.66 | CN1CCN(Cc2cccc(C(=O)N3CCC4(CC3)CC4CNC(=O)c3cc4ccncc4o3)c2)CC1 (stereo not shown) [Example 88, N-[[6-[3-[(4-methylpiperazin-1-yl)methyl]benzoyl]-6-azaspiro[2.5]octan-2-yl]methyl]furo[2,3-c]pyridine-2-carboxamide]
22 | 6.64 | CN1CCN(CCC(=O)N2CCC3(CC2)CC3CNC(=O)c2cc3ccncc3o2)CC1 (stereo not shown) [Example 89, N-[[6-[3-(4-methylpiperazin-1-yl)propanoyl]-6-azaspiro[2.5]octan-2-yl]methyl]furo[2,3-c]pyridine-2-carboxamide]
23 | 6.83 | CC(C)N1CC(C(=O)N2CCC3(CC2)CC3CNC(=O)c2cc3ccncc3o2)CC1=O (stereo not shown) [Example 90, N-[[6-(1-isopropyl-5-oxo-pyrrolidine-3-carbonyl)-6-azaspiro[2.5]octan-2-yl)methyl]furo[2,3-c]pyridine-2-carboxamide]
24 | 6.32 | O=C1CN(CC(=O)N2CCC3(CC2)CC3CNC(=O)c2cc3ccncc3o2)CCN1 (stereo not shown) [Example 91, N-[[6-[2-(3-oxopiperazin-1-yl)acetyl]-6-azaspiro[2.5]octan-2-yl]methyl]furo[2,3-c]pyridine-2-carboxamide]
25 | 6.72 | CS(=O)(=O)c1cccc(C(=O)N2CCC3(CC2)CC3CNC(=O)c2cc3ccncc3o2)c1 (stereo not shown) [Example 92, N-[[6-(3-methylsulfonylbenzoyl)-6-azaspiro[2.5]octan-2-yl]methyl]furo[2,3-c]pyridine-2-carboxamide]
